Literature values as cited in patent publication US20230349903A1, “ASSAYS AND REAGENTS FOR CHARACTERIZATION OF MHCI PEPTIDE BINDING” (priority 2020, published 2023).
pIC50, pKd: −log10 of the molar value.

Legend:
HLA-A*02:03 = HLA-A*02:03 (Homo sapiens, UniProt P04439, A173T/D140Y/D185E/D98H/E277Q/G131W/G231S/I119V/I121R/I166T/I218V/L180W/L300P/L318F/N151K/N90K/P208A/P217A/Q86G/Q94H/R138H/R169H/T345S); settings: IEDB value, purified MHC/competitive/radioactivity, read-out: half maximal inhibitory concentration (IC50); cited from earlier work
A*26:01 = A*26:01 (Homo sapiens, UniProt P04439, A114D/A173T/A270S/D101N/D185E/E277Q/E87N/F33Y/G231S/I121R/I218V/K168Q/L180W/L300P/L318F/P208A/P217A/Q86R/Q94H/R138Q/S129P/T187R/T323A/T345S/V100A/V358M); settings: IEDB value, purified MHC/direct/fluorescence, read-out: dissociation constant KD (~EC50); cited from earlier work

Row | Sequence | pIC50 (HLA-A*02:03) | pKd (A*26:01)
1 | NLFDIPLLTV [Peptide A0203-04] | 9.60 | –
2 | YVIRDLAAM [Peptide A2601-01] | – | 9.00
